Assay results taken from patent US20230399319A1, “Acylsulfamide Compound and Pharmaceutical Use Therefor” (Japan Tobacco Inc., priority 2019, published 2023).

Chains of the proteins cited; added tags and fusions are not shown.
UniProt Q96P20, whole entry: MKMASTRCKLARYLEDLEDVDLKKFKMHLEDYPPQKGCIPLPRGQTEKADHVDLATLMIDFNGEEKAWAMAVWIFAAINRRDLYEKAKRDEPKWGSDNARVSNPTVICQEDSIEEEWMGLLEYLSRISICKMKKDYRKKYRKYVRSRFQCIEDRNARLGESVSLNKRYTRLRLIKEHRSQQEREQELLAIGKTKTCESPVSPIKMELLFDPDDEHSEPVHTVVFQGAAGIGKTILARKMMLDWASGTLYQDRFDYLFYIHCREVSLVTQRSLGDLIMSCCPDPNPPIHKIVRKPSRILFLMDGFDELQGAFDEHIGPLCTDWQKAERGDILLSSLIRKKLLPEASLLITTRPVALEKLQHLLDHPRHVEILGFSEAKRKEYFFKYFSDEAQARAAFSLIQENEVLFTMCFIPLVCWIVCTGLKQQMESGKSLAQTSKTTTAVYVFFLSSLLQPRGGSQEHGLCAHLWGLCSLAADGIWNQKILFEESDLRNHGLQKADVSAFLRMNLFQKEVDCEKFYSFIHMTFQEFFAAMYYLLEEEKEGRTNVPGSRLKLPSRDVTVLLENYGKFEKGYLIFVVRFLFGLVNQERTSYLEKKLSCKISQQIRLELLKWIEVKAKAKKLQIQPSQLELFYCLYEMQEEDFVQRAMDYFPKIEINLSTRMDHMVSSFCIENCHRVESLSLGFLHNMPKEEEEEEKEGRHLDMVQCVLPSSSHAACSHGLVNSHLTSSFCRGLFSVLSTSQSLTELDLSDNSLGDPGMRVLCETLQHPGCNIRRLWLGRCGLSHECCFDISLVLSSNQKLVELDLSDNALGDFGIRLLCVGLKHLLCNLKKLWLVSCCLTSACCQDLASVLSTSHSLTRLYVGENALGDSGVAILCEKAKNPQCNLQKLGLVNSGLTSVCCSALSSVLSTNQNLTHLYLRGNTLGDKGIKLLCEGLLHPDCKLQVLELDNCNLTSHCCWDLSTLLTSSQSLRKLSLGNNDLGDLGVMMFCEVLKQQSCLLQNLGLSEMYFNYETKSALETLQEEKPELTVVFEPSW

The molecules below were run against NLRP3 inflammasome (Homo sapiens (Human), UniProt Q96P20) (assay: Evaluation of NLRP3 inflammasome inhibitory activity (inhibition of IL-1β production in THP1-Null cells, LPS/Nigericin)).

Compound	IC50
CCCS(=O)(=O)N1CCCN(S(=O)(=O)NC(=O)c2coc(Nc3c(C)ccc(C)c3C)n2)CC1	89 nM
CCC(=O)N(C)C1COCCN(S(=O)(=O)NC(=O)c2coc(Nc3cc(C(F)(F)F)ccc3C)n2)C1 (racemic)	110 nM
CCS(=O)(=O)C1CCCN(S(=O)(=O)NC(=O)c2coc(Nc3cc(C(F)(F)F)ccc3C)n2)CC1 (racemic)	26 nM
COc1ccnc(N2CCCN(S(=O)(=O)NC(=O)c3coc(Nc4cc(C(F)(F)F)ccc4C)n3)CC2)n1	48 nM
Cc1nn(C(C)C)c(C)c1Nc1nc(C(=O)NS(=O)(=O)N2CCCOCC2)co1	2700 nM
Cc1nnc(C2(C)CCN(S(=O)(=O)NC(=O)c3coc(Nc4cc(C(F)(F)F)ccc4C)n3)CC2)o1	720 nM
COC[C@@H]1CCN(S(=O)(=O)NC(=O)c2coc(Nc3cc(C(F)(F)F)ccc3C)n2)CCO1	17 nM
